Experimental data from patent US20190175560A1, “MEBENDAZOLE CANCER THERAPIES AND METHODS OF USE” (Shepherd Therapeutics, Inc., priority 2017, published 2019).

Experiments:
[1] = test system: OE-33 esophageal carcinoma cells; assay: Synergy of MBZ with chemotherapeutic agents (Chou-Talalay CI, Cell Titer Glo); assay type: cell-based; settings: in combination with MBZ, 72 hour incubation
[2] = test system: Hs766t pancreatic carcinoma cells; assay: as above; assay type: cell-based; settings: in combination with MBZ, 72 hour incubation

O=c1[nH]cc(F)c(=O)[nH]1 [5-FU, 5-Fluorouracil]
synergy with MBZ (Yes/No) [1]: No

O=C1[O][Pt]2([NH][C@@H]3CCCC[C@H]3[NH]2)[O]C1=O [Oxaliplatin]
synergy with MBZ (Yes/No) [2]: No
